“Also recorded” adds a separate entry of the source.
Assays:
A431 cells = assay: Cell viability (MTS) assay, cell killing; type: cell-based, human; conditions: for cell killing activity (in words): EGFR/HER2 expressing cells (A431, CaSKi)
Procedure: (§1) After treatment the cells were incubated for 72 hr at 37° C. before the cell viability was determined by a MTS-assay, performed according to the manufacturer's instruction (CellTiter 96® AQueous One Solution Cell Proliferation Assay, Promega). Briefly, the MTS solution was diluted 20× in DMEM without phenol red (PAN-Biotech GmbH) supplemented with 10% FBS. The cells were washed once with 200 μL/PBS well, after which 100 μL diluted MTS solution was added/well. The plate was incubated for approximately 20-30 minutes at 37° C. Subsequently, the OD at 492 nm was measured on a Thermo Scientific Multiskan FC plate reader (Thermo Scientific). For quantification the background signal of ‘medium only’ wells was subtracted from all other wells, before the cell viability percentage of treated/untreated cells was calculated, by dividing the background corrected signal of treated wells over the background corrected signal of the untreated wells (×100).
(§2) Cells were seeded in a 96 well plate at 5.000-10.000 c/w in 100 μL/well and incubated overnight at 37° C. […] The media was removed from the cell culture plate and replaced by 180 μL culture media, followed by the addition of 20 μL treatment-mix/well. […] In the case that endosomal acidification inhibitors (chloroquine (Sigma Aldrich) or bafilomycin A1 (Enzo Life Sciences)) were used, the cell culture media in step 1 of treatment was replaced by 180 μL media containing 1 μM chloroquine or 0.2 μM bafilomycin A1. The plate was incubated for 1 hour at 37° C., before the 10× treatment-mix samples were added. The remaining incubation and treatment steps were performed according to standard procedures known in the field.
(§3) After treatment the cells were incubated for 72 hr at 37° C. before the cell viability was determined by a MTS-assay, performed according to the manufacturer's instruction (CellTiter 96® AQueous One Solution Cell Proliferation Assay, Promega). Briefly, the MTS solution was diluted 20× in DMEM without phenol red (PAN-Biotech GmbH) supplemented with 10% FBS (PAN-Biotech GmbH). The cells were washed once with 200 μL PBS per well, after which 100 μL diluted MTS solution was added per well. The plate was incubated for approximately 20-30 minutes at 37° C. Subsequently, the optical density at 492 nm was measured on a Thermo Scientific Multiskan FC plate reader (Thermo Scientific). For quantification the background signal of ‘medium only’ wells was subtracted from all other wells, before the ratio of untreated/treated cells was calculated, by dividing the background corrected signal of untreated wells over the background corrected signal of the treated wells.

A431 tumor = assay: A431 xenograph mouse tumor model, tumor volume; type: in vivo; conditions: Balb/c nude mice, A431 xenograft, sub-optimal ADC dose
Procedure: The conjugate was tested in a A431 (EGFR^++) xenograph mouse tumor model for EGFR tumor targeted cell killing as illustrated in FIG. 1J. Dosings started at day 12 when tumors reached ˜150 mm^3 in size and tumor volume was determined after every dosing.
Female Balb/c nude mice were injected subcutaneously with a suspension of human A431 tumor cells. Under the skin of the mice, a human epidermal carcinoma developed in the xenograft animal tumor model. After injection of the tumor cells, the xenograft tumor was allowed to develop to a size of approximately 170-180 mm^3. The A431 tumor cells have the following characteristics: high EGFR expressors, medium CD71 expressors, low HER2 expressors.
In Table 8A, the results of the treatment of control mice and tumor-bearing mice are presented. Tumor-bearing mice were treated with the indicated antibodies directed to either human Her2/neu, human EGFR, or human CD71, which are cell-surface receptors on the xenograft tumor. Cetuximab was covalently conjugated with saponin SO1861. […] The dose of the ADCs was sub-optimal in the tumor model. That is to say, from previous experiments, it was established at which sub-optimal dose of the ADCs no tumor-regression or arrest of tumor growth would be observable.
The 2 target 2-components system (2T2C) is the combination treatment of mAb1-SO1861 and mAb2-protein toxin, (FIG. 1B-D).

SK-BR-3 cells = assay: Cell viability (MTS) assay, cell killing; type: cell-based, human
Procedure: as §1, §2, §3

MDA-MB-468 cells = assay: Cell viability (MTS) assay, cell killing; type: cell-based, human; conditions: titrated alone
Procedure: as §1, §2, §3

[1] = alone, equivalent concentrations

cetuximab-(Cys-L-SO1861)^3, 7: SO1861-EMCH conjugated via cysteine residues to cetuximab
cell killing activity (in words) (A431 cells; [1]): could not induce any cell killing activity

Cetuximab: monoclonal antibody recognizing and binding human EGFR
outcome (death/euthanasia or survival) (A431 tumor): (death/euthanasia)
cell killing activity (in words) (A431 cells; + 50 μM trastuzumab-saporin): could not induce any cell killing activity
cell killing activity (in words) (A431 cells; [1]): could not induce any cell killing activity

cetuximab-SO1861: SO1861-EMCH conjugated to cysteines of cetuximab, cleavable hydrazone linker
tumor size (volume) (A431 tumor; about 170-180 mm^3 at start of treatment): 2000 mm^3

trastuzumab-(Cys-L-SO1861)^4: SO1861-EMCH conjugated via cysteine residues to trastuzumab
cell killing activity (in words) (SK-BR-3 cells; alone): could not induce any cell killing activity

trastuzumab-(L-SO1861)^3, 8: trastuzumab with labile SO1861 only
cell killing activity (in words) (SK-BR-3 cells; alone): not observed

T-DM1: Trastuzumab-emtansine carrying ~3.5 DM1 toxin molecules per antibody
cell killing (in words) (A431 cells; A431 cells (high EGFR, low HER2)): nanomolar concentrations; also recorded: not effective at such low toxin concentrations
IC50 (MDA-MB-468 cells): 60 nM

Trastuzumab: monoclonal antibody recognizing and binding human HER2
cell killing activity (in words) (SK-BR-3 cells; + 1.5 μM EGFdianthin): could not induce any cell killing activity
cell killing activity (in words) (SK-BR-3 cells; + 5 μM cetuximab-saporin): could not induce any cell killing activity
cell killing activity (in words) (SK-BR-3 cells; alone): not observed; also recorded: could not induce any cell killing activity
